The results in this text go back to PubChem BioAssay AID871 (The Scripps Research Institute Molecular Screening Center, 2007).

This is a selection; strong and weak results do not stand in their true shares. Some tests of the compounds listed are not included; inactive here does not mean inactive elsewhere. Active and inactive are the calls of the source.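 How the source made its calls: active means activation above the screen-wide mean of compound activation plus 3 SD (cut at about 130% in these data); inactive means the rest.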

This experiment in a line: enhancers of STAT3 transcriptional signaling – U3A cells, luciferase, luminescence, MLSCN library, primary screen (AID 871).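 Further: 0% = background luminescence of wells with medium and substrate only.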 The following applies: IL-6 STAT3-luciferase reporter, at 5.6 µM, stronger effect = higher value, 100% = signal with IL-6 EC80 alone. In short, it runs like this: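 Material: human STAT1-deficient U3A cells with stable STAT3-luciferase reporter / Probe or stimulus: IL-6 stimulus at 33 ng/mL final / Schedule: 1 h compound pre-exposure, 6 h IL-6 stimulation, 37 °C / Technique: luminescence / Read-out basis: percent of IL-6-only median luminescence / Control set: IL-6-only high control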
Turning to `CN(C)c1cccc(C(=O)NCC2(N(C)C)CCCCC2)c1`, the activation (% of control) is inactive: 99.7%.
In the case of `O=C(OC1CN2CCC1CC2)C(CO)(c1ccccc1)c1ccccc1` (centres undefined), the activation (% of control) is inactive: 99.2%.
Regarding `COc1cccc(C(=O)NCC2(N3CCCCC3)CCCCC2)c1`, the activation (% of control) is inactive: 102%.
`C=CCN1CCN(CCOC(=O)C(O)(c2ccccc2)c2ccccc2)CC1`: the activation (% of control) is inactive: 103%.
Take `CCN1CCCC(OC(=O)C2(O)c3ccccc3C=Cc3ccccc32)C1` (centres undefined): the activation (% of control) was inactive: 112%.
With `Cc1ccccc1C(=O)NCC1(N2CCCCC2)CCCCC1` the figure was inactive: 104%; with `CN(C)C1CCCC1OC(=O)C(O)(c1ccccc1)c1ccccc1` (centres undefined), inactive: 97.4%; with `CC(C)N1C(=O)CC2(CCN(CCOC(=O)C(O)(c3ccccc3)c3ccccc3)CC2)C1=O`, inactive: 103%.
As for `O=C(NCC1(N2CCCCC2)CCCCC1)c1cc([N+](=O)[O-])ccc1Cl`, the activation (% of control) is inactive: 99.8%.
